Test results as given in ChEMBL document CHEMBL1140163 (J Med Chem, 2008).

Chains of the proteins cited; added tags and fusions are not shown. Lines headed by an entry give the natural chain unless they say otherwise; changes in a name come on top.
UniProt P53779: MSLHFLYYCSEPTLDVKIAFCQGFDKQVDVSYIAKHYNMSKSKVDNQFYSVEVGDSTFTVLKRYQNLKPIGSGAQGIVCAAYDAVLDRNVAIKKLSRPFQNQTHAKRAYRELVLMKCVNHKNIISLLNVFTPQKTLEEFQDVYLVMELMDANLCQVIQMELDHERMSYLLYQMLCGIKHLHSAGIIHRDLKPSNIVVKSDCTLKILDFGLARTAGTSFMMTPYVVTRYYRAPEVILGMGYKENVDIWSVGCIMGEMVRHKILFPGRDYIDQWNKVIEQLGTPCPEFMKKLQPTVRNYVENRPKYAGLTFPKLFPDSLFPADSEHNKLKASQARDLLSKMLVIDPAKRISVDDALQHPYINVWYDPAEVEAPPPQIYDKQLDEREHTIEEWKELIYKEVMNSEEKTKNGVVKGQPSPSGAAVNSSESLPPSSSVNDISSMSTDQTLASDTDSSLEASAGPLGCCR
UniProt P45983: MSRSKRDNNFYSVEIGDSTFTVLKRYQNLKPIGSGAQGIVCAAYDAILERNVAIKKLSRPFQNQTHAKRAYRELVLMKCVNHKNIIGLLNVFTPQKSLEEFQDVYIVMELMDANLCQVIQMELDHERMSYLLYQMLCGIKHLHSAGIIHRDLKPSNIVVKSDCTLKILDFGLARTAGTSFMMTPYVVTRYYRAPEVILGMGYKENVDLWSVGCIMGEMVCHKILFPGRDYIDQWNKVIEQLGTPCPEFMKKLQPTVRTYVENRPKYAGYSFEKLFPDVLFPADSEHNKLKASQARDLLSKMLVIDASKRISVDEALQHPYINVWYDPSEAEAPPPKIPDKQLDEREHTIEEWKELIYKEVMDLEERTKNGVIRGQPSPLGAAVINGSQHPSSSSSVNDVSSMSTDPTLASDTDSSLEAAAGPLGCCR

How the values were obtained:
[1] = biological target: Mitogen-activated protein kinase 10 (Homo sapiens, UniProt P53779); assay: Inhibition of JNK3
[2] = biological target: Mitogen-activated protein kinase 8 (Homo sapiens, UniProt P45983); assay: Inhibition of JNK1

O=C(NC1CC1)c1cccc(-c2ccc3c(N4CCOCC4)nncc3c2)c1
IC50 [1]: > 10 µM
IC50 [2]: > 10 µM
